Our source for the inhibition values is PubChem BioAssay AID636 (SRMLSC, 2007).

The list shows a part of the results, in another mix than the full data. The source made the active and inactive calls. No stated cut-off is given here; in the data, active means inhibition above about 31%; inactive means the rest.

This test can be described thus: 384-well plate pilot, post-Golgi transport modulator project, inhibition of yeast transport mutant growth (AID 636). As to conditions: absorbance 615 nm, about 18 h, hits give high values.
The term inhibition denotes the drop in the measured response relative to a control, in per cent. For `Cc1ccc(C)c(NP(C)(=O)Oc2ccccc2)c1` (stereo not given), the inhibition is inactive: -0.91%.

`CP(=S)(Nn1cnnc1)Oc1ccccc1` (stereo not given): the inhibition is inactive: -4.68%.

Regarding `CP(=O)(Nc1ccccn1)Oc1ccccc1` (stereo not given), the inhibition was inactive: -1.3%.

Take `CN(C)CCOC(=O)C(O)(c1ccccc1)C1CCCCC1` (stereo not given): the inhibition was inactive: -1.84%.

As to `CP(=O)(Nc1ccc2c(c1)OCCO2)Oc1ccccc1` (stereo not given), the inhibition was inactive: -2.95%.
